# Values of other authors, collected in patent publication US10472401B2, “Peptides and combination of peptides for use in immunotherapy against ovarian cancer and other cancers” (immatics biotechnologies GmbH, priority 2015, dated 2019).
# System: ovarian cancer
# Conditions: clinical studies; cited from earlier work
substance,measurement,value
trastuzumab,clinical results in ovarian cancer patients,only conferred limited clinical benefit to ovarian cancer patients
